Source: patent US20140128599A1, “BENZOXAZOLE KINASE INHIBITORS AND METHODS OF USE” (Intellikine LLC La Jolla, priority 2008, published 2014)

The chains behind the UniProt entries cited, without tags or fusion partners. Where a name states a change or a piece, a line headed by the entry shows the natural chain unless it says otherwise.
UniProt P48736: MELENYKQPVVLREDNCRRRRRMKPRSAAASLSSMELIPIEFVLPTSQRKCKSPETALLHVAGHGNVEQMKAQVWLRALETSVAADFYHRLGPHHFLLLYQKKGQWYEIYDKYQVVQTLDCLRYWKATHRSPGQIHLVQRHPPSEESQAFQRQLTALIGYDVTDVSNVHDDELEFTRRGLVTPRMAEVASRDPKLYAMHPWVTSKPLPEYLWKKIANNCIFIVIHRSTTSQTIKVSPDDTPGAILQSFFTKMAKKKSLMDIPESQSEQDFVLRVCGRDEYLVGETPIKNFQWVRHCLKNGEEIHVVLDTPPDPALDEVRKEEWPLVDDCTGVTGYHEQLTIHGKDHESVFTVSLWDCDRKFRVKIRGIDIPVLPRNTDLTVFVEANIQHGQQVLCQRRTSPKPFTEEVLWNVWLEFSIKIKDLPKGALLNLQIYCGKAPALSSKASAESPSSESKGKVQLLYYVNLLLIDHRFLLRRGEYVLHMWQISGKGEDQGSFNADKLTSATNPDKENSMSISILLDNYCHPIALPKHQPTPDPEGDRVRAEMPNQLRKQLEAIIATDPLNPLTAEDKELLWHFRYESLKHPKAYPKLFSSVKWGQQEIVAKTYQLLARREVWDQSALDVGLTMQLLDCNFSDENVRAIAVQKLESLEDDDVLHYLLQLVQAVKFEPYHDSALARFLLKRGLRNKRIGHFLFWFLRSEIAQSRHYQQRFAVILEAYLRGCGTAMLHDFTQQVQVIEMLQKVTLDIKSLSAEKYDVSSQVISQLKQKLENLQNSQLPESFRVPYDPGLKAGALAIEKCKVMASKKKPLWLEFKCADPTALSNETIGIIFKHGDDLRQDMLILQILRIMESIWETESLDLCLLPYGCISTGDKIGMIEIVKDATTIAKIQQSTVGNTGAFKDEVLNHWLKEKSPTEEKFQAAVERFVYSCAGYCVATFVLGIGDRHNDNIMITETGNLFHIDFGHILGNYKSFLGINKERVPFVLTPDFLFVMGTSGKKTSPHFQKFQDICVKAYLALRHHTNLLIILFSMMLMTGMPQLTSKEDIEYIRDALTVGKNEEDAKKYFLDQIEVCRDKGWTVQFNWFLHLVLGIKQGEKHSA
UniProt P42338: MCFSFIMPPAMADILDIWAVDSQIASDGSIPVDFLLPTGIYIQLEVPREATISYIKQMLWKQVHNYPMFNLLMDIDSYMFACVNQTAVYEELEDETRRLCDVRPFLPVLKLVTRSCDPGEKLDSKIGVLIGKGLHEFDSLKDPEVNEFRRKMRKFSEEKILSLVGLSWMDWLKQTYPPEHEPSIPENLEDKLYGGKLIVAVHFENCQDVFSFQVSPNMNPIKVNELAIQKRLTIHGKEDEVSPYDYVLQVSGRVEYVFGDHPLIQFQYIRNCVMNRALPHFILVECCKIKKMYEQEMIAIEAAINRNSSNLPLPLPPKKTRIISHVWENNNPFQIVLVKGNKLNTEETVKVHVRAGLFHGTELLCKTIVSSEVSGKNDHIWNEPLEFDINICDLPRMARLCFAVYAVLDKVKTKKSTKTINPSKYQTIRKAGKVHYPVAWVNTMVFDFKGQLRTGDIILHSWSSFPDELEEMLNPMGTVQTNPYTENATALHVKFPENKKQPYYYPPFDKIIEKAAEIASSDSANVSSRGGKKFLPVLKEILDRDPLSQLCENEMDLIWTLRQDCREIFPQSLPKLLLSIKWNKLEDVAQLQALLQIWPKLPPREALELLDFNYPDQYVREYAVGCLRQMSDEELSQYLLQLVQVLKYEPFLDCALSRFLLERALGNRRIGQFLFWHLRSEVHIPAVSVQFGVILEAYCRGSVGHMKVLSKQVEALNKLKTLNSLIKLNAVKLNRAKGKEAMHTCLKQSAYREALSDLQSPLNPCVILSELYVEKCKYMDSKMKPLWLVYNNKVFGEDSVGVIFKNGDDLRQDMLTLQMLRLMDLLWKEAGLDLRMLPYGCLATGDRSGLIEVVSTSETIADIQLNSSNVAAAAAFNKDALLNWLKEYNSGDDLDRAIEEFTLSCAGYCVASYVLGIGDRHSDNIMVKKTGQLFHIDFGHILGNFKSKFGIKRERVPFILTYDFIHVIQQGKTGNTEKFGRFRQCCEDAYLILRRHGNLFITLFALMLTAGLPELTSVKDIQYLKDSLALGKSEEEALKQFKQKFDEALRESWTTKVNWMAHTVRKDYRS
UniProt O00329: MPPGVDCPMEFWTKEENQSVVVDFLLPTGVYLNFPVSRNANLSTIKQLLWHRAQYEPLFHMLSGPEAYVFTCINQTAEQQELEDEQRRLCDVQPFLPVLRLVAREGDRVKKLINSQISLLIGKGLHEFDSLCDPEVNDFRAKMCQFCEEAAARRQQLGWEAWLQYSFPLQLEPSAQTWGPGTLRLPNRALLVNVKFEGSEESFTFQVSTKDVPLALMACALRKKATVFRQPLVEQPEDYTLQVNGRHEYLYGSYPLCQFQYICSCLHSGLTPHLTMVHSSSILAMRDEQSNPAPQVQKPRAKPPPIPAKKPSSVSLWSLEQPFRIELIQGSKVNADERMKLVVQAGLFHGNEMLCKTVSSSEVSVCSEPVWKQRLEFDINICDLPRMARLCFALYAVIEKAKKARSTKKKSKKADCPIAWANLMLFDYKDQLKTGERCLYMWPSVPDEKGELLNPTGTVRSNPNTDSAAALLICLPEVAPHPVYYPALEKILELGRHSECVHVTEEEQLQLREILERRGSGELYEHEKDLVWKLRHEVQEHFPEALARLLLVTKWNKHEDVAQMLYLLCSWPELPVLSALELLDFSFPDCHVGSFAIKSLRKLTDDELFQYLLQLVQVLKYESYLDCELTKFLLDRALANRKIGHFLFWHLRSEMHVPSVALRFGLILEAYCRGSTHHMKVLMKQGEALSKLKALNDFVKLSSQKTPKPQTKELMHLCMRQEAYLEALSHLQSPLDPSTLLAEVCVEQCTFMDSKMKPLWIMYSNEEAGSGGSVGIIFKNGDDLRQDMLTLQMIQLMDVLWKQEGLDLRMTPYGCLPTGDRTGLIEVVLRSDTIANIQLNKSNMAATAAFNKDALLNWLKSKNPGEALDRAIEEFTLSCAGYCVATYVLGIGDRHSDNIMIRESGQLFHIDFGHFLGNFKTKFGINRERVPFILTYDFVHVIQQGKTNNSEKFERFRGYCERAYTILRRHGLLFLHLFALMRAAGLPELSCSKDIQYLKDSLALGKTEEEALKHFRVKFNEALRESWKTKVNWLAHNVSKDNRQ

Key:
Type in all cases: biochemical
PI3K γ = molecular target: T1, PI3K γ (Homo sapiens, UniProt P48736); experiment: PI3K kinase inhibition assay (p110γ)
T1 construct: purchased Sigma
Procedure: Class I PI3-Ks can be either purchased (p110α/p85α, p110β/p85α, p110δ/p85α from Upstate, and p110γ from Sigma) or expressed as previously described (Knight et al., 2004). IC50 values are measured using either a standard TLC assay for lipid kinase activity (described below) or a high-throughput membrane capture assay. Kinase reactions are performed by preparing a reaction mixture containing kinase, inhibitor (2% DMSO final concentration), buffer (25 mM HEPES, pH 7.4, 10 mM MgCl2), and freshly sonicated phosphatidylinositol (100 μg/ml). Reactions are initiated by the addition of ATP containing 10 μCi of γ-32P-ATP to a final concentration 10 or 100 μM and allowed to proceed for 5 minutes at room temperature. For TLC analysis, reactions are then terminated by the addition of 105 μl 1N HCl followed by 160 μl CHCl3:MeOH (1:1). The biphasic mixture is vortexed, briefly centrifuged, and the organic phase is transferred to a new tube using a gel loading pipette tip precoated with CHCl3. This extract is spotted on TLC plates and developed for 3-4 hours in a 65:35 solution of n-propanol:1M acetic acid. The TLC plates are then dried, exposed to a phosphorimager screen (Storm, Amersham), and quantitated. For each compound, kinase activity is measured at 10-12 inhibitor concentrations representing two-fold dilutions from the highest concentration tested (typically, 200 μM).

PI3K β = molecular target: T2, PI3K β (Homo sapiens, UniProt P42338); experiment: PI3K kinase inhibition assay (p110β/p85α)
T2 construct: purchased Upstate

PI3K δ = molecular target: T3, PI3K δ (Homo sapiens, UniProt O00329); experiment: PI3K kinase inhibition assay (p110δ/p85α)
T3 construct: purchased Upstate

Row | IC50 (PI3K β) | IC50 (PI3K δ) | Compound | IC50 (PI3K γ)
1 | – | – | CNc1noc2ccc(-c3nn(C(C)C)c4ncnc(N)c34)cc12 [compound 15] | > 10 µM
2 | – | – | Nc1noc2ccc(-c3nn(CCN4CCOCC4)c4ncnc(N)c34)cc12 [compound 18] | > 10 µM
3 | – | – | CCOC(=O)C(C)n1nc(-c2ccc3oc(N)nc3c2)c2c(N)ncnc21 (centres unmarked) [compound 24] | > 10 µM
4 | < 1 µM | < 1 µM | Nc1nc2cc(-c3nn(C4CC(O)C4)c4ncnc(N)c34)ccc2o1 (centres unmarked) [compound 26] | –
